Data published in patent publication US9815851B2, “Pyrrolo carboxamides as modulators of orphan nuclear receptor RAR-related orphan receptor-gamma (RORγ, NR1F3) activity and for the treatment of chronic inflammatory and autoimmune diseases” (PHENEX PHARMACEUTICALS AG, priority 2011, dated 2017).

The chains behind the UniProt entries cited, without tags or fusion partners. Residues count along the entry.
UniProt P51449, whole entry: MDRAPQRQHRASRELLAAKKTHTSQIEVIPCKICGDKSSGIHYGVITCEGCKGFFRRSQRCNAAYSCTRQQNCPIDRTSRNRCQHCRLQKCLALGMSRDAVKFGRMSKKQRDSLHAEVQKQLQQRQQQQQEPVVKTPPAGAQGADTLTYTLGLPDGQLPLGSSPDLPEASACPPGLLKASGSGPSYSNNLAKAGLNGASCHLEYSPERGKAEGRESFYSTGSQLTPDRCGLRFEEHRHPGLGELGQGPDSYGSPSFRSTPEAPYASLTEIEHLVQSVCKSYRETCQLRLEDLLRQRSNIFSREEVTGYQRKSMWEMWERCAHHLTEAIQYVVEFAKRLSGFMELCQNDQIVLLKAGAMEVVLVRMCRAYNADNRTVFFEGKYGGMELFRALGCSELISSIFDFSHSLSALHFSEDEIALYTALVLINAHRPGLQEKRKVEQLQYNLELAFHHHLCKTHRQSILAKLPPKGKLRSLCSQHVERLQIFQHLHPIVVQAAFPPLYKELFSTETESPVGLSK
UniProt P51449, 269-508 limits assumed: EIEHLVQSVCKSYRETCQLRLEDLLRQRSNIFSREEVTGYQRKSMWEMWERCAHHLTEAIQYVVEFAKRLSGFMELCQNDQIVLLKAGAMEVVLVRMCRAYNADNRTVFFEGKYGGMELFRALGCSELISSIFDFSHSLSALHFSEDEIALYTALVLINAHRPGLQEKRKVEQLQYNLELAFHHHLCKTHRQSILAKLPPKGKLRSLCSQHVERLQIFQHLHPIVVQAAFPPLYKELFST

What was measured:
[1] = target: RORγ ligand binding domain (LBD) (Homo sapiens, UniProt P51449); test: TR-FRET Activity Assay (ligand sensing, RORγ-LBD / coactivator peptide interaction, LANCE); type: biochemical; conditions: first value of the cell FRET/FF/REN
RORγ = RORγ (UniProt P51449); test: RORγ Gal4 Reporter Gene Assay in 293T cells (firefly and renilla luciferase); type: cell-based, human; conditions: for pIC50 (FF): second value of the cell, firefly luciferase; for pIC50 (REN): third value of the cell, renilla normalised luciferase

Row | SMILES | pIC50 (FRET) [1] | pIC50 (FF) (RORγ) | pIC50 (REN) (RORγ)
1 | Cc1c(C(=O)NC2COC2)cc(-c2cc(C(C)(C)C)cc(C(C)(C)O)c2)n1CC1CCCCC1 | 6.1 | 7.0 | 7.1
2 | Cc1cc(-c2cc(C(=O)NC3CCOCC3)c(C)n2CC2CCCCC2)ccc1S(=O)(=O)NC(C)(C)C | 6.5 | 7.1 | 7.2
3 | Cc1c(C(=O)NC2COC2)cc(-c2cc(OCC(F)(F)F)nc(C(C)(C)C)c2)n1CC1CCCCC1 | 6.7 | 6.3 | 6.4
